Laboratory results reported in paper PMC6420870 (Neuropharmacology, 2019).
Structures can show the parent of a compound that is named as a salt.

Protein sequences, listed by entry. Tags and fused reporters are not part of them. Residues count along the entry.
UniProt P31424, 21-1203: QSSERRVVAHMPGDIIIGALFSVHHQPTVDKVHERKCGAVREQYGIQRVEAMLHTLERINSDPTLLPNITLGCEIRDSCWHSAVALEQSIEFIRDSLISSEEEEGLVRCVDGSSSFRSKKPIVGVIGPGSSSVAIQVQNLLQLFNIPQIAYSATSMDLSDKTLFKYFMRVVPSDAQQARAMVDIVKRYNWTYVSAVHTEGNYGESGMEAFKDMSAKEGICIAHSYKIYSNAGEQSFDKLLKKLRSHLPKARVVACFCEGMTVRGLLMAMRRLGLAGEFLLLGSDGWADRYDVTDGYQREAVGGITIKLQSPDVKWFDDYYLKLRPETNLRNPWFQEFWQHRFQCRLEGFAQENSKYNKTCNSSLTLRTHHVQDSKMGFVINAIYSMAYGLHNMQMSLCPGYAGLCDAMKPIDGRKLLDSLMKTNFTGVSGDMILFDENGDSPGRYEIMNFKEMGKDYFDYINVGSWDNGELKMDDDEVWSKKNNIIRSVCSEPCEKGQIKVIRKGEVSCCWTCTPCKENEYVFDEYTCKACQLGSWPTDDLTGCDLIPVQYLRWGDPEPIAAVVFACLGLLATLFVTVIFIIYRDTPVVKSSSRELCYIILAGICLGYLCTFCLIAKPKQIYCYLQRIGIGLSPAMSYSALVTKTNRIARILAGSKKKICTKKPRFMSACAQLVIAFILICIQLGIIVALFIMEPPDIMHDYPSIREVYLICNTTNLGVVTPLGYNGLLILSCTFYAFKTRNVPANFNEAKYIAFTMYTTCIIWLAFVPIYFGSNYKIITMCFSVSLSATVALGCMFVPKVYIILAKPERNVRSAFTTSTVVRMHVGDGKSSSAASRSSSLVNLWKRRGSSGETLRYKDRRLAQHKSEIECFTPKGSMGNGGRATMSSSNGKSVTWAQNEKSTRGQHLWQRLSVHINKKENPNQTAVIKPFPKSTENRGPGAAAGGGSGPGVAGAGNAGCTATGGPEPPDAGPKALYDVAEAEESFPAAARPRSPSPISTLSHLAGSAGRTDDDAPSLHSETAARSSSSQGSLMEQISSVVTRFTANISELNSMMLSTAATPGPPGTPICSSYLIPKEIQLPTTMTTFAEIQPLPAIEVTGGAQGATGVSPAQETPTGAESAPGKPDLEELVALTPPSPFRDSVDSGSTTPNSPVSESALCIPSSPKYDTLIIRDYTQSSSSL

Columns and labels:
[1] = target: T1, rat mGlu5 (HEK293A-rat mGlu5-low) (Rattus norvegicus, UniProt P31424); experiment: IP1 accumulation; format: cell-based
[2] = target: T1, rat mGlu5 (HEK293A-rat mGlu5-low); experiment: [3H]methoxy-PEPy inhibition binding, intact adherent cells; format: cell-based

IC50 [1] [nM]	Ki [2] [nM]	Compound
13.8	5.5	Cc1cccc(C#Cc2ccccc2)n1 [MPEP, 2-Methyl-6-(phenylethynyl)pyridine]
43.7	63.1	Cc1nc(C#Cc2cccnc2)cs1 [MTEP, 3-((2-methyl-1,3-thiazol-4-yl)ethynyl)pyridine hydrochloride]
